Screens from PubChem.
RAD54 branch – inhibitors of human RAD54 branch migration | Q92698 | RAD54 Holliday junction branch migration, FAM/BHQ fluorescence | inhibition, % at 10.4 µM | actives 0.14% (n = 360,000) | AID 602329;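 active = mean normalized replicate activity at least 40 and at least half of replicates scoring 40 or more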;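 also: 0% = median of neutral control wells and 100% = median of positive control wells; inhibitors cause a drop in the FAM fluorescence signal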
UUG fidelity – alters start codon recognition fidelity in yeast. S. cerevisiae UUG-firefly luciferase reporter, luminescence/redox ratio. 350,000 tested, 0.13% active. activity score, % at 18.7 µM. AID 602363;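 active means replicate mean at a twofold rise or more, about +100% in these data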;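 further: firefly luciferase made from a UUG start codon reports start codon fidelity; reporter light over untreated wells divided by growth signal over untreated wells; some hits fall short of that in this replicate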
CASP6 VEID inh – blocks human caspase-6 cleavage activity. AID 686996. inhibition, % at 12.5 µM. purified caspase-6, Z-VEID-R110 cleavage fluorescence. actives 0.53% (n = 350,000). P55212;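 active = mean inhibition across replicates at least about 35%, with every replicate also reaching that limit, limit read from the data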;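 also: 0% = median of neutral control wells and 100% = no fluorescence left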
RAD52 inh – RAD52 (human) annealing inhibition. P43351. actives 0.46% (n = 360,000). inhibition, % at 18.7 µM. recombinant RAD52 DNA annealing, FRET fluorescence. AID 651710;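 active = every replicate showing at least 50% inhibition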
INS-1E GSIS act – GLuc luminescence reporter in INS-1E cells, primary screen for activators of glucose-dependent secretion of insulin | actives 0.61% (n = 370,000) | activation, % at 16.6 µM | INS-1E GLuc reporter insulin secretion, 2-3 h | AID 743287;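 active = lowest replicate activation of at least 40%, so every replicate reaches that level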;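 also: 0% = median of neutral control wells and 100% = median of IBMX positive control wells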
PglD DTNB – inhibitors of Campylobacter jejuni PglD acetyltransferase; purified PglD enzyme, DTNB colorimetric CoA detection; inhibition, % at 12.5 µM; actives 0.098% (n = 360,000); in the data active = inhibition above about 16%, passing the limit was not always enough
Numbers without * were called inactive; nt = no result given. In the library only some 1.5% were active in any assay of this set; here they are far more common.

[1] S=c1[nH]nc(-c2ccncc2)n1/N=C/C=C/c1ccco1
[2] COc1cccc(-c2ccc([C@@H]3[C@H]4CN(S(=O)(=O)c5cn(C)cn5)CCCCN4[C@H]3CO)cc2)c1
[3] O=C(N1CCOCC1)N1CCN(c2ccccn2)CC1
[4] CCN1CC(=O)N2[C@H](C1)[C@@H](c1ccc(Br)cc1)[C@@H]2CO
[5] c1ccc2c(NCC3CCCO3)nc(N3CCCCC3)nc2c1 (configuration not stated)
[6] c1ccc(-c2nc(N3CCCCCC3)c3ccccc3n2)nc1
[7] c1ccc2c(N3CCCCC3)nc(N3CCCC3)nc2c1
[8] c1csc(-c2nc(NCC3CCCO3)c3ccccc3n2)c1 (configuration not stated)
[9] Oc1ccc(/C=N/n2c(-c3ccccc3)n[nH]c2=S)cc1Br
[10] O=[N+]([O-])c1ccc(/C=N/n2c(-c3ccccc3)n[nH]c2=S)cc1
screen / no.	1	2	3	4	5	6	7	8	9	10
RAD54 branch	nt	1.9	-11.9	nt	-7.5	56.4*	4.6	-2.2	6.3	11.2
UUG fidelity	nt	-2.0	-19.4	nt	-10.4	-35.4	-1.2	-10.9	-24.0	-8.5
CASP6 VEID inh	51.3*	0.3	nt	-2.5	-0.9	nt	nt	-0.2	51.9*	0.2
RAD52 inh	-23.6	-8.5	nt	6.7	-2.0	nt	nt	-18.8	-24.2	-2.6
INS-1E GSIS act	4.9	5.8	46.0*	-7.6	44.7*	nt	52.4*	41.1	-6.6	43.0*
PglD DTNB	nt	5.8	2.2	nt	-1.0	10.7	-2.5	-8.1	3.8	5.2

Quoted at random: two records from the list, in no set order.
[2] COc1cccc(-c2ccc([C@@H]3[C@H]4CN(S(=O)(=O)c5cn(C)cn5)CCCCN4[C@H]3CO)cc2)c1
[7] c1ccc2c(N3CCCCC3)nc(N3CCCC3)nc2c1
screen / no.	2	7
RAD54 branch	1.9	4.6
UUG fidelity	-2.0	-1.2
CASP6 VEID inh	0.3	nt
RAD52 inh	-8.5	nt
INS-1E GSIS act	5.8	52.4*
PglD DTNB	5.8	-2.5

New compounds follow
[11] Cc1ccc(/C=N/n2c(-c3ccccc3)n[nH]c2=S)cc1
[12] COC(=O)c1ccc(N)cc1O
[13] COC(=O)c1ccc(=O)c2nc3/c(=C/O)c(O)cc(=O)c3[nH]c12
[14] O=C(C[C@H]1CC[C@@H](NC(=O)C2CCC2)[C@H](CO)O1)NCc1ccncc1
[15] C=CCSc1nnc2c(n1)OC=Nc1ccccc1-2
[16] Cc1cccc(NC(=O)CNC(=O)COc2ccc(C(=O)c3ccc(F)cc3)cc2)c1C
[17] Cc1cccc(NC(=O)CNC(=O)COc2ccc(-c3ccc(C#N)cc3)cc2)c1C
[18] CS(=O)(=O)Nc1ccc2c(c1)[C@@H]1C[C@H](CC(=O)NC3CCCCC3)O[C@H](CO)[C@@H]1O2
[19] Cn1c(SCC(=O)NC2CCCCC2)nnc1-c1ccccn1
[20] Cn1c(SCC(=O)NC2CCCC2)nnc1-c1ccncc1
screen / no.	11	12	13	14	15	16	17	18	19	20
RAD54 branch	0.7	-4.2	-6.2	1.8	3.3	nt	nt	0.4	-4.5	-13.1
UUG fidelity	-15.5	0.3	-15.9	-0.2	-21.2	nt	nt	-11.7	-22.3	-8.0
CASP6 VEID inh	3.1	nt	65.5*	1.4	nt	nt	nt	-2.4	39.4*	nt
RAD52 inh	-3.0	nt	5.1	-9.6	nt	nt	nt	-12.3	-8.8	-20.9
INS-1E GSIS act	-6.9	nt	nt	10.5	nt	-0.2	66.7*	8.1	-7.6	8.2
PglD DTNB	-0.6	-1.5	10.3	-0.7	-2.6	nt	nt	-0.4	-0.4	-9.2

[21] CC(C)c1ccc(-c2nnc(SCC(=O)NC3CC3)n2C)cc1
[22] CO[C@@H]1CN(C)C(=O)c2cc(NS(C)(=O)=O)ccc2OC[C@@H](C)N(C(=O)CN(C)C)C[C@@H]1C
[23] COc1ccc(S(=O)(=O)NNC(=O)Cc2csc(C)n2)cc1[N+](=O)[O-]
[24] O=C(Nc1ccc(N2C(=O)C3C4C=CC(C4)C3C2=O)cc1)Nc1nnc(C(F)(F)F)s1 (configuration not stated)
[25] COc1cc(O)c2c(c1)OC(c1ccc(O)cc1)CC2=O (configuration not stated)
[26] Cc1c(O)cc2c(c1O)C(=O)CC(c1ccc(O)cc1)O2 (configuration not stated)
[27] OC[C@H]1[C@H](c2ccc(-c3ccccc3F)cc2)[C@H]2CN(Cc3cccnc3)CCCCN21
[28] OC[C@H]1[C@H](c2ccc(/C=C/c3ccccc3)cc2)[C@H]2CN(Cc3cccnc3)CCCCN21
[29] OC[C@H]1[C@@H](c2ccc(-c3ccccc3F)cc2)[C@@H]2CN(Cc3cccnc3)CCCCN12
[30] Cc1cc(NS(=O)(=O)c2c(C(=O)N3CCOCC3)c(C)n(C)c2C)ccc1Br
[31] OC(CNC1CCCCC1)COCCOc1ccc(Br)cc1 (configuration not stated)
screen / no.	21	22	23	24	25	26	27	28	29	30	31
RAD54 branch	0.6	1.4	-8.5	-2.5	-1.5	-4.5	-8.8	-0.6	-3.0	-15.6	-20.8
UUG fidelity	-11.6	-7.7	-14.8	-10.2	-0.6	-4.3	-15.1	-12.3	-6.5	17.6	4.0
CASP6 VEID inh	52.9*	-5.2	55.5*	4.7	4.5	46.1*	47.4*	4.8	-1.7	-1.4	46.7*
RAD52 inh	-0.2	-5.6	-0.9	-43.2	1.9	-11.9	5.3	53.3*	9.0	2.8	9.7
INS-1E GSIS act	10.5	-5.7	21.9	-27.3	nt	2.1	-17.2	-27.0	-14.1	-6.5	nt
PglD DTNB	-0.9	3.2	-0.9	nt	2.1	-1.7	7.1	0.0	-2.6	-1.3	6.5
